Laboratory results as given in ChEMBL document CHEMBL4339194 (J Med Chem, 2019).

By UniProt entry, the sequences of proteins in these tests, tags left out.
UniProt P35222, whole entry: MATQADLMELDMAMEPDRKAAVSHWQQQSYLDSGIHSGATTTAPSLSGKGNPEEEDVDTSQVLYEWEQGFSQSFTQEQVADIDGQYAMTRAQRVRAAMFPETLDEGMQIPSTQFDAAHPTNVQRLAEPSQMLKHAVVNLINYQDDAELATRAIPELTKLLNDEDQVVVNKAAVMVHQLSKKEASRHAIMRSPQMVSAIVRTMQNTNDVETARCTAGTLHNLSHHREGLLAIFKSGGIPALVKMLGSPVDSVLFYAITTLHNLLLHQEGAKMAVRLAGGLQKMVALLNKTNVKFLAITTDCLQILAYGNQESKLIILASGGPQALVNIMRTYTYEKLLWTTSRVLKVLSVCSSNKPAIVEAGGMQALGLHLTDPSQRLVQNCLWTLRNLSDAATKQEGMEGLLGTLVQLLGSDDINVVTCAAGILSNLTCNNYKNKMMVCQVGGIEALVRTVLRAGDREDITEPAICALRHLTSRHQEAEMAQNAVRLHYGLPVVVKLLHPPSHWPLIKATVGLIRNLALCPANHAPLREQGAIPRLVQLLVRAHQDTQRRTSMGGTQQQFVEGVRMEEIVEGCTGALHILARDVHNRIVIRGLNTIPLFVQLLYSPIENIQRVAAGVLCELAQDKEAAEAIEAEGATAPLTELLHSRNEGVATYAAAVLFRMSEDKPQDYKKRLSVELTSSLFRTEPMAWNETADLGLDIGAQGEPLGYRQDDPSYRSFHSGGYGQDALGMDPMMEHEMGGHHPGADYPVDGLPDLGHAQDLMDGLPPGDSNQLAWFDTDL

What follows are compounds tested against Catenin beta-1 (Homo sapiens, UniProt P35222). Conditions: not given.

Going from `COC(=O)[C@H](CCC(=O)O)NC(=O)[C@H](CC(=O)O)NC(=O)[C@H](Cc1ccc2ccccc2c1)NC(=O)c1cc2cc(C(F)(F)F)ccc2[nH]1` to `COC(=O)[C@H](CCC(=O)O)NC(=O)[C@H](CC(=O)O)NC(=O)[C@H](Cc1ccc2ccccc2c1)NC(=O)c1cc2cc(F)ccc2[nH]1`, the IC50 rises from 47 µM to 349 µM (7.4-fold). The first is the more potent here.

`NC(=O)CC[C@H](NC(=O)[C@H](Cc1nn[nH]n1)NC(=O)[C@H](Cc1ccc2ccccc2c1)NC(=O)c1cc2cc(Cl)ccc2[nH]1)C(=O)Nc1ccc(OC(F)(F)F)cc1` and `NC(=O)C[C@H](NC(=O)[C@H](Cc1ccc2ccccc2c1)NC(=O)c1cc2cc(Cl)ccc2[nH]1)C(=O)N[C@@H](Cc1nn[nH]n1)C(=O)Nc1ccc(OC(F)(F)F)cc1` are within 1.5-fold of each other in IC50: 16 µM for the first, 19 µM for the second.

`COC(=O)[C@H](CCC(=O)O)NC(=O)[C@H](CC(=O)O)NC(=O)[C@H](Cc1ccc2ccccc2c1)NC(=O)c1cc2cc([N+](=O)[O-])ccc2[nH]1` and `COC(=O)[C@H](CCC(=O)O)NC(=O)[C@H](CC(=O)O)NC(=O)[C@H](Cc1ccc2ccccc2c1)NC(=O)c1cc2cc(Cl)ccc2[nH]1` are within 1.5-fold of each other in IC50: 67 µM for the first, 45 µM for the second.

`COc1cccc(NC(=O)[C@@H](CCC(=O)O)NC(=O)[C@H](CC(=O)O)NC(=O)[C@H](Cc2ccc3ccccc3c2)NC(=O)c2cc3cc(Cl)ccc3[nH]2)c1` and `COc1cccc(NC(=O)[C@H](CCC(=O)O)NC(=O)[C@H](CC(=O)O)NC(=O)[C@@H](Cc2ccc3ccccc3c2)NC(=O)c2cc3cc(Cl)ccc3[nH]2)c1` are within 1.5-fold of each other in IC50: 39 µM for the first, 31 µM for the second.

Going from `O=C(O)CC[C@H](NC(=O)[C@H](CC(=O)O)NC(=O)[C@H](Cc1ccc2ccccc2c1)NC(=O)c1cc2cc(Cl)ccc2[nH]1)C(=O)Nc1ccc(F)cc1` to `O=C(O)CC[C@H](NC(=O)[C@H](CC(=O)O)NC(=O)[C@H](Cc1ccc2ccccc2c1)NC(=O)c1cc2cc(Cl)ccc2[nH]1)C(=O)Nc1ccc(Cl)cc1`, the IC50 falls from 17 µM to 11 µM (1.5-fold).

`COc1cc(NC(=O)[C@H](CCC(=O)O)NC(=O)[C@H](CC(=O)O)NC(=O)[C@H](Cc2ccc3ccccc3c2)NC(=O)c2cc3cc(Cl)ccc3[nH]2)cc(C(F)(F)F)c1` and `COc1cc(NC(=O)[C@H](CCC(=O)O)NC(=O)[C@H](CC(=O)O)NC(=O)[C@H](Cc2ccc3ccccc3c2)NC(=O)c2cc3cc(Cl)ccc3[nH]2)cc(OC)c1` are within 1.5-fold of each other in IC50: 10 µM for the first, 13 µM for the second.

First: O=C(O)C[C@H](NC(=O)[C@H](Cc1ccc2ccccc2c1)NC(=O)c1cc2cc(Cl)ccc2[nH]1)C(=O)N[C@@H](Cc1nn[nH]n1)C(=O)Nc1ccc(OC(F)(F)F)cc1
Second: CCOC(=O)CC[C@H](NC(=O)[C@H](Cc1nn[nH]n1)NC(=O)[C@H](Cc1ccc2ccccc2c1)NC(=O)c1cc2cc(Cl)ccc2[nH]1)C(=O)Nc1ccc(OC(F)(F)F)cc1
The IC50 of the first is 3.6-fold lower: 5.9 µM for the first, 21 µM for the second. The first is the more potent here.

`O=C(O)CC[C@H](NC(=O)[C@H](CC(=O)O)NC(=O)[C@H](Cc1ccc2ccccc2c1)NC(=O)c1cc2cc(Cl)ccc2[nH]1)C(=O)Nc1cccc(Cl)c1` and `O=C(O)CC[C@H](NC(=O)[C@H](CC(=O)O)NC(=O)[C@H](Cc1ccc2ccccc2c1)NC(=O)c1cc2cc(Cl)ccc2[nH]1)C(=O)Nc1cccc(F)c1` are within 1.5-fold of each other in IC50: 12 µM for the first, 13 µM for the second.

Going from `CC(C)C[C@H](NC(=O)c1cc2cc(Cl)ccc2[nH]1)C(=O)N[C@@H](CC(=O)O)C(=O)N[C@@H](CCC(=O)O)C(=O)Nc1ccccc1` to `O=C(O)CC[C@H](NC(=O)[C@H](CC(=O)O)NC(=O)[C@H](Cc1ccc(Cl)cc1)NC(=O)c1cc2cc(Cl)ccc2[nH]1)C(=O)Nc1ccccc1`, the IC50 falls from 273 µM to 44 µM (6.2-fold). The second is the more potent here.

First: O=C(O)CC[C@H](NC(=O)[C@H](CC(=O)O)NC(=O)[C@H](Cc1ccc2ccccc2c1)NC(=O)c1cc2cc(Cl)ccc2[nH]1)C(=O)Nc1ccc(OC(F)(F)F)cc1
Second: NC(=O)CC[C@H](NC(=O)[C@H](CC(=O)O)NC(=O)[C@H](Cc1ccc2ccccc2c1)NC(=O)c1cc2cc(Cl)ccc2[nH]1)C(=O)Nc1ccc(OC(F)(F)F)cc1
The IC50 of the first is 3.5-fold lower: 7.5 µM for the first, 26 µM for the second. The first is the more potent here.

`N#Cc1ccc(C[C@H](NC(=O)c2cc3cc(Cl)ccc3[nH]2)C(=O)N[C@@H](CC(=O)O)C(=O)N[C@@H](CCC(=O)O)C(=O)Nc2ccccc2)cc1` and `COc1ccc(C[C@H](NC(=O)c2cc3cc(Cl)ccc3[nH]2)C(=O)N[C@@H](CC(=O)O)C(=O)N[C@@H](CCC(=O)O)C(=O)Nc2ccccc2)cc1` are within 1.5-fold of each other in IC50: 79 µM for the first, 99 µM for the second.

Going from `O=C(O)CC[C@H](NC(=O)[C@H](CC(=O)O)NC(=O)[C@H](Cc1ccc2ccccc2c1)NC(=O)c1cc2cc(Cl)ccc2[nH]1)C(=O)Nc1ccccc1F` to `O=C(O)CC[C@H](NC(=O)[C@H](CC(=O)O)NC(=O)[C@H](Cc1ccc2ccccc2c1)NC(=O)c1cc2cc(Cl)ccc2[nH]1)C(=O)Nc1ccccc1Cl`, the IC50 rises from 14 µM to 38 µM (2.7-fold).

`O=C(O)CC[C@H](NC(=O)[C@H](CC(=O)O)NC(=O)[C@H](Cc1ccc2ccccc2c1)NC(=O)c1cc2cc(Cl)ccc2[nH]1)C(=O)Nc1cccc(OC(F)(F)F)c1` and `O=C(O)CC[C@H](NC(=O)[C@H](CC(=O)O)NC(=O)[C@H](Cc1ccc2ccccc2c1)NC(=O)c1cc2cc(Cl)ccc2[nH]1)C(=O)Nc1cccc(C(F)(F)F)c1` are within 1.5-fold of each other in IC50: 8.5 µM for the first, 8.9 µM for the second.

`CC(C)CCNC(=O)[C@H](CCC(=O)O)NC(=O)[C@H](CC(=O)O)NC(=O)[C@H](Cc1ccc2ccccc2c1)NC(=O)c1cc2cc(Cl)ccc2[nH]1` and `O=C(O)CC[C@H](NC(=O)[C@H](CC(=O)O)NC(=O)[C@H](Cc1ccc2ccccc2c1)NC(=O)c1cc2cc(Cl)ccc2[nH]1)C(=O)NCCc1ccccc1` are within 1.5-fold of each other in IC50: 33 µM for the first, 35 µM for the second.

`O=C(O)CC[C@H](NC(=O)[C@H](CC(=O)O)NC(=O)[C@H](Cc1ccc2ccccc2c1)NC(=O)c1cc2cc(Cl)ccc2[nH]1)C(=O)Nc1ccc(C(F)(F)F)cc1` and `COc1ccc(NC(=O)[C@H](CCC(=O)O)NC(=O)[C@H](CC(=O)O)NC(=O)[C@H](Cc2ccc3ccccc3c2)NC(=O)c2cc3cc(Cl)ccc3[nH]2)cc1` are within 1.5-fold of each other in IC50: 7.3 µM for the first, 10 µM for the second.

`O=C(O)CC[C@H](NC(=O)[C@H](CC(=O)O)NC(=O)[C@H](Cc1cccc2ccccc12)NC(=O)c1cc2cc(Cl)ccc2[nH]1)C(=O)Nc1ccccc1` and `O=C(O)CC[C@H](NC(=O)[C@H](CC(=O)O)NC(=O)[C@H](Cc1ccc2ccccc2c1)NC(=O)c1cc2cc(Cl)ccc2[nH]1)C(=O)Nc1ccccc1` are within 1.5-fold of each other in IC50: 11 µM for the first, 13 µM for the second.

Compared with `COC(=O)[C@H](CCC(=O)O)NC(=O)[C@H](CC(=O)O)NC(=O)[C@H](Cc1ccc2ccccc2c1)NC(=O)c1cc2cc(Cl)cc(Cl)c2[nH]1`, `COC(=O)[C@H](CCC(=O)O)NC(=O)[C@H](CC(=O)O)NC(=O)[C@H](Cc1ccc2ccccc2c1)NC(=O)c1cc2c(Cl)cc(Cl)cc2[nH]1` is 2.2-fold lower in IC50: 38 µM for the first, 17 µM for the second.

Going from `O=C(O)CC[C@H](NC(=O)[C@H](CC(=O)O)NC(=O)[C@H](Cc1ccc2ccccc2c1)NC(=O)c1cc2cc(Cl)ccc2[nH]1)C(=O)NCc1ccccc1` to `COc1cccc(NC(=O)[C@H](CCC(=O)O)NC(=O)[C@H](CC(=O)O)NC(=O)[C@H](Cc2ccc3ccccc3c2)NC(=O)c2cc3cc(Cl)ccc3[nH]2)c1`, the IC50 falls from 30 µM to 9.3 µM (3.2-fold). The second is the more potent here.

First: O=C(O)CC[C@H](NC(=O)[C@H](Cc1nn[nH]n1)NC(=O)[C@H](Cc1ccc2ccccc2c1)NC(=O)c1cc2c(Cl)cc(Cl)cc2[nH]1)C(=O)Nc1ccc(OC(F)(F)F)cc1
Second: NC(=O)C[C@H](NC(=O)[C@H](Cc1ccc2ccccc2c1)NC(=O)c1cc2cc(Cl)ccc2[nH]1)C(=O)N[C@@H](CCC(=O)O)C(=O)Nc1ccc(OC(F)(F)F)cc1
The IC50 of the first is 25-fold lower: 1.7 µM for the first, 42 µM for the second.

`COC(=O)[C@H](CCC(=O)O)NC(=O)[C@H](CC(=O)O)NC(=O)[C@H](Cc1ccc2ccccc2c1)NC(=O)c1cc2c(Cl)cccc2[nH]1` and `COC(=O)[C@H](CCC(=O)O)NC(=O)[C@H](CC(=O)O)NC(=O)[C@H](Cc1ccc2ccccc2c1)NC(=O)c1cc2cc(Br)ccc2[nH]1` are within 1.5-fold of each other in IC50: 60 µM for the first, 62 µM for the second.

Compared with `O=C(O)CC[C@H](NC(=O)[C@H](CC(=O)O)NC(=O)[C@H](Cc1ccc(C(F)(F)F)cc1)NC(=O)c1cc2cc(Cl)ccc2[nH]1)C(=O)Nc1ccccc1`, `O=C(O)CC[C@H](NC(=O)[C@H](CC(=O)O)NC(=O)[C@H](Cc1ccc(Cl)c(Cl)c1)NC(=O)c1cc2cc(Cl)ccc2[nH]1)C(=O)Nc1ccccc1` is 2.6-fold lower in IC50: 37 µM for the first, 14 µM for the second. The second is the more potent here.

First: COc1cccc(NC(=O)[C@H](CCC(=O)O)NC(=O)[C@@H](CC(=O)O)NC(=O)[C@H](Cc2ccc3ccccc3c2)NC(=O)c2cc3cc(Cl)ccc3[nH]2)c1
Second: O=C(O)CC[C@H](NC(=O)[C@H](CC(=O)O)NC(=O)[C@H](Cc1ccc2ccccc2c1)NC(=O)c1cc2cc(Cl)ccc2[nH]1)C(=O)Nc1ccc2c(c1)OCO2
The IC50 of the first is 2.7-fold higher: 26 µM for the first, 9.8 µM for the second. The second is the more potent here.

`O=C(O)CC[C@H](NC(=O)[C@H](CC(=O)O)NC(=O)[C@H](Cc1ccccc1Cl)NC(=O)c1cc2cc(Cl)ccc2[nH]1)C(=O)Nc1ccccc1` showed an IC50 of 55 µM.

Each compound was assayed on MDA-MB-231. Conditions: Homo sapiens, 5 uM.

For `O=C1[C@H](Cc2ccc(O)cc2)N2C(=O)CCN(C(=O)NCc3ccccc3)[C@H]2CN1Cc1cccc2ccccc12`, the inhibition was “Active”.

Tested on: MDA-MB-231
Conditions: Homo sapiens, 5 uM
Remark: another data set of the same source

For `O=C1[C@H](Cc2ccc(O)cc2)N2C(=O)CCN(C(=O)NCc3ccccc3)[C@H]2CN1Cc1cccc2ccccc12`, the inhibition was “Active”.

Active and inactive are the calls of the source. The rule behind the calls is not given here.
